In this experiment the test system is split IL-2 CISC (FRB-IL2RB and FKBP-IL2RG) dual-edited human CD4+ T cells. The experiment is described as follows: Enrichment of split IL-2 CISC dual-edited CD4+ T cells. The format is cell-based. Here is the method: FIG. 27 depicts an exemplary timeline of steps for dual AAV editing of CD4+ T cells, expansion with rapalog, and analysis of enriched cells. […] Two days post-editing, cells were analyzed by flow for GFP and mCherry expression, and then expanded in media containing 50 ng/ml human IL-2 or 100 nM rapalog. Flow cytometry to assess enrichment of GFP, mCherry double-positive cells was carried out on days 6, 8, and 10 post-editing.
Panel A depicts a schematic showing AAV HDR donors construct used to introduce of the “split” IL-2 CISC elements for selection of dual-edited cells. CISC components (IL2RG vs. IL2RB) are split between 2 constructs and co-expressed with either HA-FoxP3 cDNA or the islet-specific TCR, T1D4 (AAVs #3240 and #3243 respectively). Each repair template is flanked by identical homology arms that […] the gRNA targeting the TRAC locus. Only edited CD4+ T cells incorporating one copy of each construct are predicted to selectively expand under Rapalog treatment. Panel B depicts a timeline of key steps for dual AAV/RNP-based editing of CD4+ T cells, expansion with Rapalog and analysis of enriched cells. […] Two days post-editing, cells were analyzed by flow for HA-FoxP3 and TCR expression, and then expanded in media containing 50 ng/ml human IL-2 or 100 nM Rapalog. Flow cytometry to assess enrichment of HA-FoxP3, TCR double-positive cells was carried out on days 5 and 8 post-editing. Panel C depicts rapalog enrichment of dual-edited cells. Left panel: Flow plots for HA-FoxP3 and TCR in dual-edited cells following 8 days expansion in IL-2 or Rapalog; Right panel: quantitation of percent HA-FoxP3 / TCR double-positive cells following expansion in IL-2 or Rapalog for 5 and 8 days.
In order to obtain sufficient numbers of cells for therapeutic use, it may be useful, in some contexts, to selectively expand engineered cells in vitro. To do this in the context of dual-edited cells, split IL-2 CISC HDR knock-in constructs were generated for enrichment and selection. […] See e.g., FIG. 108. […]

As for “IL-2: human IL-2 cytokine, comparison culture condition, 50 ng/ml”, the “FOXP3/T1D4 double positive cells” value (#3240 and #3243, day 7, 100 nM AP21967 or 50 ng/mL IL-2, initial 1.6%) is listed as 1.47%. In addition, the “enrichment of GFP/mCherry double positive cells” value (donors R003657 and R003471, AAV #3207 and #3208, 7 days) is “no enrichment”. For the setting “single-locus TRAC split-CISC GFP/mCherry, 100 nM rapalog or IL-2, over 8 days, from 1.4%”, the “GFP/mCherry double positive cells” value was “no expansion”.

The values are drawn from patent publication US20230279351A1, “ARTIFICIAL ANTIGEN-SPECIFIC IMMUNOREGULATORY T (AIRT) CELLS” (Seattle Children's Hospital (dba Seattle Children's …, priority 2019, published 2023).
